# Apparent affinities of Ab-14 variants for a coronavirus HR2 peptide

Binding partner: SARS-CoV-2 spike HR2 peptide, sequence PDVDLGDISGINAS.

Ab-14 is the parent antibody, in scFv form: VH, then a (GGGGS)3 linker, then VL. The light chain is unchanged in all variants.
VH: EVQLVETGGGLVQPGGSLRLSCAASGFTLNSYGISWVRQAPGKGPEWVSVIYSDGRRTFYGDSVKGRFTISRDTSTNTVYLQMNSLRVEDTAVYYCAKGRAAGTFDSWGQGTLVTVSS
VL: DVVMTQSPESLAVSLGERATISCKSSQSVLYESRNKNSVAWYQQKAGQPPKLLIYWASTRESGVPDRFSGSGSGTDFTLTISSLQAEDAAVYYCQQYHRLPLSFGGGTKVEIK

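This is the validation round: designs drawn from the data on random variants, tested in the same kind of assay. Group labels follow the data file (Ctrl: baseline library sampled from a position-specific scoring matrix, with some repeated check sequences; En: ensemble of fine-tuned language models; HC: hill climbing; Gen: genetic algorithm; Gibbs: Gibbs sampling; a sequence that several methods proposed may carry one label only). In AlphaSeq, yeast of one mating type display the scFv and yeast of the other type display the target. Binding brings cells together so that they mate, and sequencing counts the barcode pairs among the diploids. The ratio of observed to expected reads was calibrated, replicate by replicate, on BCL2-family standards whose Kd was known from biolayer interferometry. The assay was run in six technical replicates.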

Each variant is given by its three heavy chain CDRs, as the data file delimits them; those of the parent are GFTLNSYGIS, VIYSDGRRTFYGDSVK, GRAAGTFDS. This list holds designs with more than six substitutions. Numbers give log10(Kd / nM), so 0 is 1 nM and 3 is 1 µM. Smaller is tighter. A mean of the replicates is given; it leaves out those without a signal. "not detected" means that the variant was in the library but no mating with the target was seen in any replicate; the authors take this as a sign of poor binding, and no number exists. As a blank, each scFv also met three strains without target: over all heavy chain designs, 1% of these pairings were detected, typically at 2.08 and seldom below 0.84. Of ten entries with the parent sequence, four were seen in most replicates (averages 0.34 to 2.37), three in one and three in none, so single entries are noisy. Values of this round are not directly comparable with the first-round values of the same sequences. In the paper, a design with two or fewer of six values counts as a poor binder.

CDR-H1,CDR-H2,CDR-H3,group,"mean, log10 nM",detected
GFDLNEYGIS,VIYADGQRTAYTDSVK,GENAGTFDM,En_Gen,-0.12,6 of 6
GFDLQEYGIS,VIYADGMRVSYTNTVK,GGNSMISAT,En_Gibbs,not detected,0 of 6
GFDLNEYGIS,VIYADGLRTAYSDSVK,GQNAGTFDV,En_Gen,0.12,6 of 6
GFDLNEYGIS,VIYADGSRTFYSDSVK,GNTAGTFDA,En_HC,-0.31,6 of 6
GFNLNEYGIS,VIYADGRRTFYADSVK,GKQAGTFDM,En_HC,-0.33,6 of 6
GQDLNEYGIS,VIYADGQRTSYAQSVK,NAGDITGLV,En_Gibbs,not detected,0 of 6
GFDIEEYGIS,VIYADGVRTMYADDVK,GINKTYSLT,En_Gibbs,not detected,0 of 6
GFDLNEYGIS,VIYADGRRTQYIDSVK,GNQAGTFDT,En_HC,-0.05,6 of 6
GFDLNEYGIS,VIYADGMRTQYIDSVK,GEAAGTFDS,En_HC,-0.06,4 of 6
GFDLEEMGVS,VIYADGKRKAYKNKAK,GQTAGSFDV,En_Gibbs,not detected,0 of 6
GDDLEDYGIS,VIYADGRRTAYQESVK,GLYAGYFDV,En_Gibbs,not detected,0 of 6
GFDLNEYGIS,VIYADGMRTSYADDVK,GENAGTFDV,En_Gen,-0.13,6 of 6
GFDLNEYGIS,VIYADGRRTAYVDSVK,GNQAGTFDV,En_Gen,-0.87,6 of 6
GFDLEEYGIS,VIYADGRRVSYAQSVK,GVYSGTHYV,En_Gibbs,not detected,0 of 6
GFDLNEYGIS,VIYADGMRTYYIDSVK,GNAAGTFDV,En_HC,-0.65,6 of 6
GFDLNEYGIS,VIYADGMRTAYTDSVK,GSNAGTFDV,En_Gen,-0.57,6 of 6
GFDLNEYGIS,VIYADGRRTAYSDSVK,GENAGTFDT,En_Gen,0.79,6 of 6
GFDLNEYGIS,VIYADGRRTSYADSVK,GNVAGTFDT,En_HC,0.28,6 of 6
GFDLNEYGIS,VIYADGVRTFYADDVK,GENAGTFDI,En_Gen,-0.05,6 of 6
GFWLDEYGIS,VIYADGKRVAYINSVK,GQFTYFNDV,En_Gibbs,not detected,0 of 6
GFDLNEYGIS,VIYADGRRTAYADDVK,GTNAGTFDI,En_Gen,not detected,0 of 6
GFDLNEYGIS,VIYADGMRTAYADKVK,GQNAGTFDL,En_Gen,-0.70,6 of 6
GFDLDEYGIS,VIYADGQRTYYADSVK,GNNAGTFDV,En_Gen,0.00,6 of 6
GFNLEDYGIS,VIYADGHRASYVESVK,GGLAGTFDE,En_Gibbs,-0.19,6 of 6
GFNLDEYGIS,VIYADGARTAYADKVK,GFNWWISVN,En_Gibbs,not detected,0 of 6
GFDLNEYGIS,VIYADGMRTVYADSVK,GQNAGTFDV,En_Gen,-0.62,6 of 6
GFDLDEYGIS,VIYADGMRTFYSDSVK,GETAGTFDV,En_HC,-0.70,6 of 6
GFDLNEYGIS,VIYADGKRTAYADDVK,GENAGTFDI,En_Gen,-0.07,6 of 6
GFQLDEYGIS,VIYADGLRTVYKDTVK,GSDTGLFMI,En_Gibbs,not detected,0 of 6
EFDLNEYGVS,VIYADGHRTFYADHVK,GQEAGIFFM,En_Gibbs,not detected,0 of 6
GHTLNSYGIS,VIYSDGMRTFYGDQVK,QRVAWTFPS,Ctrl,not detected,0 of 6
GFDLNEYGIS,VIYADGRRTAYSDSVK,GQNAGFFDS,En_HC,not detected,0 of 6
GFDLDEYGIS,VIYADGHRRAYADDVK,GMHSGSVQH,En_Gibbs,not detected,0 of 6
GFDLNEYGIS,VIYADGRRTFYSDSVK,GQTGGTFDI,En_HC,-0.01,6 of 6
GQSLDEYGIS,VIYADGQRKSYMDSVK,GNGTGQLFD,En_Gibbs,not detected,0 of 6
GFDLNEYGIS,VIYADGQRTFYADSVK,GTNAGTFDV,En_Gen,not detected,0 of 6
GNSLDDYGIS,VIYADGRRTMYAEKVK,GQIAGSFFH,En_Gibbs,not detected,0 of 6
GFDLNEYGIS,VIYADGVRKAYADDVK,GENAGTFDI,En_Gen,0.74,6 of 6
GFGLDEYGIS,VIYADGRRTGYQDKFK,GANNFSVLM,En_Gibbs,not detected,0 of 6
GFDLNEYGIS,VIYADGLRTAYADSVK,GNTAGTFDI,En_Gen,-0.41,6 of 6
GFNLNEYGIS,VIYADGRRTAYTDDVK,GEFAGTFDL,En_HC,0.58,6 of 6
GFNLSEYGIS,VIYADGKKTQYSNAVK,GANGGIFNV,En_Gibbs,3.05,1 of 6
GFNLNEYGIS,VIYADGRRTFYADSVK,GEIAGTFDF,En_HC,-0.20,6 of 6
GFDLNEYGIS,VIYADGQRTFYSDSVK,GNQAGTFDI,En_HC,not detected,0 of 6
GFDLAEYGIS,VIYADGSRTAYNQNVK,GTGGDSFDF,En_Gibbs,3.14,1 of 6
GFDLNEYGIS,VIYADGMRTAYADSVK,GNNAGTFDL,En_Gen,-0.22,6 of 6
GDALDEYGIS,VIYADGMRSSYSNDVK,GTNFGNKMV,En_Gibbs,not detected,0 of 6
GFDLDEYGIS,VIYADGKRTVYADSVK,GNVAGTFDI,En_Gen,-0.49,6 of 6

The first 3 entries again:

| CDR-H1 | CDR-H2 | CDR-H3 | group | mean, log10 nM | detected |
|---|---|---|---|---|---|
| GFDLNEYGIS | VIYADGQRTAYTDSVK | GENAGTFDM | En_Gen | -0.12 | 6 of 6 |
| GFDLQEYGIS | VIYADGMRVSYTNTVK | GGNSMISAT | En_Gibbs | not detected | 0 of 6 |
| GFDLNEYGIS | VIYADGLRTAYSDSVK | GQNAGTFDV | En_Gen | 0.12 | 6 of 6 |

Source: Li et al. 2023 (doi:10.1038/s41467-023-39022-2), MIT Lincoln Laboratory and A-Alpha Bio; data file from the FLAb repository.